Experimental findings from ChEMBL document CHEMBL4371003, “Discovery of Novel Dual Mechanism of Action Src Signaling and Tubulin Polymerization Inhibitors (KX2-391 and KX2-361)” (J Med Chem, 2018) are described below.

One assay has as its system U-87 MG. Nature of the assay: Antiproliferative activity against human U87 cells. Format: functional, U-87MG ATCC.
The subject of the next assay is Daoy. Nature of the assay: Antiproliferative activity against human DaOY cells. It counts as functional.

In the case of `Cc1nc(Nc2ncc(C(=O)Nc3c(C)cccc3Cl)s2)cc(N2CCN(CCO)CC2)n1.O` [DASATINIB], the figures for the GI50 in the assay on U-87 MG and in the assay on Daoy were 1590 nM and 2930 nM, respectively.
